Source: US20140105970A1, “ADJUVANT AND ANTIGEN PARTICLE FORMULATION” (published 2014)

Tests used:
[1] = system: mice; test: Effect of adjuvant placement (sphere or carrier solution) on immune response of immunized mice (FIG. 7, FIG. 8); conditions: 10 micron OVA-loaded microspheres with CpG
[2] = colour change from colorless to coloured form; cited from earlier work
[3] = system: C57Bl/6 mice; test: Intra-dermal injection of free epitopes with adjuvants, interferon gamma Elispot of harvested T-Cells; conditions: free epitopes injected intra-dermally (tail) with adjuvants CpG and MPL; T-Cells harvested 14 days post inoculation, challenged in-vitro with same epitopes

Compound | pH Change (pH range of colour change) [2] | also measured
monophosphoryl lipid A |  | immune response with MPLA included in the spheres themselves ([1]; MPLA 10 micrograms in 2 milligrams of microparticles): does not show a dramatic improvement; immune response with MPLA in the carrier solution versus inside the spheres ([1]; MPLA 10 micrograms per mouse, p=0.0002): improvement in the immune response
O=C1OC(c2ccc(O)cc2)(c2ccc(O)cc2)c2ccccc21 | 8.2-10.0 pH | 
Ethyl Red | 4.0-5.8 pH | 
RGYVYQGL |  | immune response (interferon gamma Elispot) [3]: no measureable immune response
O=[N+]([O-])c1ccc(O)cc1 | 5.4-6.6 pH | 
Cc1cc(O)c(C(C)C)cc1C1(c2cc(C(C)C)c(O)cc2C)OC(=O)c2ccccc21 | 8.8-10.5 pH | 
o-Cresolpthalein | 8.2-9.8 pH | 
CCOC(=O)C(c1ccc(C)cc1C)c1ccc(C)cc1C | 8.4-9.6 pH | 
SIINFEKL |  | immune response (interferon gamma Elispot) [3]: no measureable immune response
Quinaldine Red | 1.0-2.2 pH | 
O=[N+]([O-])c1ccc(O)c([N+](=O)[O-])c1 | 2.8-4.0 pH | 
